Data published in ChEMBL document CHEMBL1128809, “Novel PKC inhibitory analogs of balanol with replacement of the ester functionality” (Bioorg Med Chem Lett, 1995).

Target: T1, Protein kinase C epsilon type (Homo sapiens, UniProt Q02156)
T1 sequence (Q02156 whole entry): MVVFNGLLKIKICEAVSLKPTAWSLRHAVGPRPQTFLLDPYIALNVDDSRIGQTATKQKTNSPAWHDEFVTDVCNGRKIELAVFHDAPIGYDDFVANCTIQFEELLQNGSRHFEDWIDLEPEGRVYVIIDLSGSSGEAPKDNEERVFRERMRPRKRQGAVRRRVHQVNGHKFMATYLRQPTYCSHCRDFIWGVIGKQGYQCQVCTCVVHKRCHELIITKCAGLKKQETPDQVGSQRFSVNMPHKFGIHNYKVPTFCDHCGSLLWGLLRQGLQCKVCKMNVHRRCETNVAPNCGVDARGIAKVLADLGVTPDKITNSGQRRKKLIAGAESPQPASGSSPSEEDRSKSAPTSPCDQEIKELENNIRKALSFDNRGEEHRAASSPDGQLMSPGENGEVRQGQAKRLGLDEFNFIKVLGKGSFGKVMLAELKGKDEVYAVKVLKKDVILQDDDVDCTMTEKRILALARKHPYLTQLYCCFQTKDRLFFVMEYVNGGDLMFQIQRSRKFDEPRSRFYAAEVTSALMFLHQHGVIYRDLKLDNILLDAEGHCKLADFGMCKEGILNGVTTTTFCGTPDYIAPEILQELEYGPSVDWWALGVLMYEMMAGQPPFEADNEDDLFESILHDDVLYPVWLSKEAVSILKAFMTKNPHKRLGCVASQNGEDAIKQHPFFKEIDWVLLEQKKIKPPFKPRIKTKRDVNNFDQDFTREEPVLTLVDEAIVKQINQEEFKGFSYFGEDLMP
Assay: Inhibition of Protein kinase C epsilon

| Compound | IC50 [nM] |
| --- | --- |
| O=C(N[C@@H]1CNCCC[C@H]1OC(=O)c1cc(O)c(C(=O)c2c(O)cccc2C(=O)O)c(O)c1)c1ccc(O)cc1 (racemic) [BALANOL] | 38 |
| O=C(N[C@@H]1CNCCC[C@H]1OC(=O)c1cc(O)c(C(=O)c2c(O)cccc2C(=O)O)c(O)c1)c1ccc(O)cc1 [BALANOL] | 20 |
